# Apparent affinities of Ab-91 variants for a coronavirus HR2 peptide

All variants were tested on one target, the spike HR2 peptide PDVDLGDISGINAS (SARS-CoV-2).

Parent scFv Ab-91: VL joined to VH by a (GGGGS)3 linker. Changes lie in the heavy chain CDRs alone.
VL: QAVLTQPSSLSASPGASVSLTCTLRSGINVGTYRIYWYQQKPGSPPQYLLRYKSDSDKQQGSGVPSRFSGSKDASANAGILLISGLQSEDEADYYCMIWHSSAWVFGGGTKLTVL
VH: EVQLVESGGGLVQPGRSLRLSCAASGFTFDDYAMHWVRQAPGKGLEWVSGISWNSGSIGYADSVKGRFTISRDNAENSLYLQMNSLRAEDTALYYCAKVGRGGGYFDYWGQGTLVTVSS

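The parent was found by panning a naive human phage display library on the peptide. AAYL51 was designed without a model: most single CDR substitutions and a random sample of double and triple ones. AlphaSeq pools MATa yeast showing the antibodies with MATalpha yeast showing the peptide. After mating in shaken culture at 30 °C for 16 h, diploids were selected and their barcode pairs sequenced. Read counts were normalised to the haploid input and turned into Kd by a linear fit to BCL2-family pairs of known affinity, for each replicate. The assay was run in three technical replicates.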

Variants are written as CDR1, CDR2 and CDR3 of the heavy chain (limits as in the source). Parent: GFTFDDYAMH, GISWNSGSIGYADSVK, VGRGGGYFDY. Values are log10 of the apparent Kd in nM; lower means stronger binding. A mean of the replicates is given; it leaves out those without a signal. "nd" means that the variant was in the library but no mating with the target was seen in any replicate; the authors take this as a sign of poor binding, and no number exists. Nonspecific signal, from three strains lacking the peptide, appeared in 21% of pairings of library AAYL51, centred on 4.54 (5% of these signals below 3.26); values are not corrected for it. Also given: how often the same scFv was detected with the empty control strains. For reference, the parent read 1.86 as the reference entry and 0.88 as a member of this library.

{"CDR-H1": "GFTFDDYAMH", "CDR-H2": "GISWNPGSIGYLDSVK", "CDR-H3": "VGRGGGYFDY", "mean log10 Kd (nM)": "3.77", "detected": "1/3", "signal with controls": "4/9"}
{"CDR-H1": "GFTFDDYAMH", "CDR-H2": "GISWNSPSAGYADSVS", "CDR-H3": "VGRGGGYFDY", "mean log10 Kd (nM)": "4.82", "detected": "3/3", "signal with controls": "3/9"}
{"CDR-H1": "GFTFDDYAMM", "CDR-H2": "GISWNSGSIGYADSVK", "CDR-H3": "VGRGGTYFVY", "mean log10 Kd (nM)": "nd", "detected": "0/3", "signal with controls": "1/9"}
{"CDR-H1": "GFTMDDYAGH", "CDR-H2": "GTSWNSGSIGYADSVK", "CDR-H3": "VGRGGGYFDY", "mean log10 Kd (nM)": "nd", "detected": "0/3", "signal with controls": "1/9"}
{"CDR-H1": "GFTFDDYTMH", "CDR-H2": "GQTWNSGSIGYADSVK", "CDR-H3": "VGRGGGYFDY", "mean log10 Kd (nM)": "nd", "detected": "0/3", "signal with controls": "2/9"}
{"CDR-H1": "GETFDDGAMH", "CDR-H2": "GISWNSGSIGGADSVK", "CDR-H3": "VGRGGGYFDY", "mean log10 Kd (nM)": "nd", "detected": "0/3", "signal with controls": "0/9"}
{"CDR-H1": "GFTFDDYAMH", "CDR-H2": "GISWNSGSIGWADSVK", "CDR-H3": "VGHGGGYFDK", "mean log10 Kd (nM)": "nd", "detected": "0/3", "signal with controls": "0/9"}
{"CDR-H1": "GFTFDDYAMH", "CDR-H2": "GPSWNSGSIGGADSVK", "CDR-H3": "VGRGGGYFDW", "mean log10 Kd (nM)": "4.30", "detected": "2/3", "signal with controls": "7/9"}
{"CDR-H1": "GFFVDDYAMH", "CDR-H2": "GISWNSGSIGYADSVK", "CDR-H3": "VGRGGGYFDY", "mean log10 Kd (nM)": "4.83", "detected": "3/3", "signal with controls": "6/9"}
{"CDR-H1": "GFTFDRYAMH", "CDR-H2": "GISWNSGSIGYADSVP", "CDR-H3": "VDRGGGYFDY", "mean log10 Kd (nM)": "4.59", "detected": "2/3", "signal with controls": "7/9"}
{"CDR-H1": "GFTFDDYQMH", "CDR-H2": "GISWNSGSIGYLDSVK", "CDR-H3": "VGRGGGYFDW", "mean log10 Kd (nM)": "3.20", "detected": "1/3", "signal with controls": "2/9"}
{"CDR-H1": "GFTFDDYAMH", "CDR-H2": "GGSWNSGSIGYADSVK", "CDR-H3": "VGRGGGYFFY", "mean log10 Kd (nM)": "nd", "detected": "0/3", "signal with controls": "0/9"}
{"CDR-H1": "GFRFDDYAMH", "CDR-H2": "GISWNSGSIGYADSVK", "CDR-H3": "VGAGCGYFDY", "mean log10 Kd (nM)": "4.33", "detected": "1/3", "signal with controls": "3/9"}
{"CDR-H1": "GYEFDDYAMH", "CDR-H2": "GISWNSGSIGYPDSVK", "CDR-H3": "VGRGGGYFDY", "mean log10 Kd (nM)": "4.99", "detected": "1/3", "signal with controls": "1/9"}
{"CDR-H1": "GFTFDDYAMH", "CDR-H2": "GISWRSGSIGYALSVY", "CDR-H3": "VGRGGGYFDY", "mean log10 Kd (nM)": "4.21", "detected": "1/3", "signal with controls": "1/9"}
{"CDR-H1": "GFMFDTYAMH", "CDR-H2": "GASWNSGSIGYADSVK", "CDR-H3": "VGRGGGYFDY", "mean log10 Kd (nM)": "4.30", "detected": "1/3", "signal with controls": "1/9"}
{"CDR-H1": "GFTFRDYAMH", "CDR-H2": "GISWNIGSIGYADSVK", "CDR-H3": "VGRGRGYFDY", "mean log10 Kd (nM)": "nd", "detected": "0/3", "signal with controls": "0/9"}
{"CDR-H1": "GFTFDEYAMH", "CDR-H2": "GMSWNSGWIGYADSVK", "CDR-H3": "VGRGGGYFDY", "mean log10 Kd (nM)": "3.36", "detected": "2/3", "signal with controls": "3/9"}
{"CDR-H1": "GFTFDDYAMH", "CDR-H2": "DISYNSGSIGYADSVK", "CDR-H3": "VGRAGGYFDY", "mean log10 Kd (nM)": "nd", "detected": "0/3", "signal with controls": "0/9"}
{"CDR-H1": "GFTFDDYAMH", "CDR-H2": "GDSWNSGGIGYADSVK", "CDR-H3": "VGRGGGYFDE", "mean log10 Kd (nM)": "nd", "detected": "0/3", "signal with controls": "0/9"}
{"CDR-H1": "GFAFDDWAMH", "CDR-H2": "WISWNSGSIGYADSVK", "CDR-H3": "VGRGGGYFDY", "mean log10 Kd (nM)": "3.78", "detected": "1/3", "signal with controls": "1/9"}
{"CDR-H1": "GFTFDDYAMH", "CDR-H2": "GISWNSGSIGVADVVK", "CDR-H3": "VGRGGGYFPY", "mean log10 Kd (nM)": "5.47", "detected": "1/3", "signal with controls": "1/9"}
{"CDR-H1": "GFTSDDYAMH", "CDR-H2": "GISWNSGSIGYADSVK", "CDR-H3": "VWRVGGYFDY", "mean log10 Kd (nM)": "4.68", "detected": "2/3", "signal with controls": "1/9"}

3 of these entries, quoted again:

CDR-H1,CDR-H2,CDR-H3,mean log10 Kd (nM),detected,signal with controls
GFTFDEYAMH,GMSWNSGWIGYADSVK,VGRGGGYFDY,3.36,2/3,3/9
GFTFDDYAMH,GISWNSPSAGYADSVS,VGRGGGYFDY,4.82,3/3,3/9
GFTFDDYAMH,GGSWNSGSIGYADSVK,VGRGGGYFFY,nd,0/3,0/9

Reference: Engelhart et al. 2022, doi:10.1038/s41597-022-01779-4. File: FLAb, binding data.